Laboratory results taken from US20080146500A1 (published 2008).

Biological target: T1, human VPAC2 receptor (human, UniProt P41587 24-438)
T1 construct: whole, on cells
T1 sequence (looked up): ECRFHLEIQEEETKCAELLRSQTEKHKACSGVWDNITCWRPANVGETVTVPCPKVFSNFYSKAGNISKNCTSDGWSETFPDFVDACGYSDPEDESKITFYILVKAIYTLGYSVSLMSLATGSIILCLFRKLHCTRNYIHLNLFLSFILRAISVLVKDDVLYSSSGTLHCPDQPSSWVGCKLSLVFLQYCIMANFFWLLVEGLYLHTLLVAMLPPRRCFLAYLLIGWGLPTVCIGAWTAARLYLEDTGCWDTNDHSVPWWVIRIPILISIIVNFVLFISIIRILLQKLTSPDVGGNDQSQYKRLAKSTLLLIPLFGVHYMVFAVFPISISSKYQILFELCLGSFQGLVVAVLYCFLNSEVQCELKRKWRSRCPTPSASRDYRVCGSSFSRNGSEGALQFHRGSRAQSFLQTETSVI
Test: filter binding, VPAC2 membranes, 125I-VIP tracer

IC50: 2.52 nM
B1: PACAP-27 (pituitary adenylate cyclase-activating polypeptide, 27 amino acids) (ligand)
peptide: HSDGIFTDSYSRYRKQMAVKKYLAAVL
modifications: not fully specified
